Data: paper PMC7950324, “A general method for quantifying ligand binding to unmodified receptors using Gaussia luciferase” (The Journal of Biological Chemistry, 2021)
Like-named read-outs stand apart in the source and are kept apart here.

The chains behind the UniProt entries cited, without tags or fusion partners. Where a name states a change or a piece, a line headed by the entry shows the natural chain unless it says otherwise.
UniProt P35348: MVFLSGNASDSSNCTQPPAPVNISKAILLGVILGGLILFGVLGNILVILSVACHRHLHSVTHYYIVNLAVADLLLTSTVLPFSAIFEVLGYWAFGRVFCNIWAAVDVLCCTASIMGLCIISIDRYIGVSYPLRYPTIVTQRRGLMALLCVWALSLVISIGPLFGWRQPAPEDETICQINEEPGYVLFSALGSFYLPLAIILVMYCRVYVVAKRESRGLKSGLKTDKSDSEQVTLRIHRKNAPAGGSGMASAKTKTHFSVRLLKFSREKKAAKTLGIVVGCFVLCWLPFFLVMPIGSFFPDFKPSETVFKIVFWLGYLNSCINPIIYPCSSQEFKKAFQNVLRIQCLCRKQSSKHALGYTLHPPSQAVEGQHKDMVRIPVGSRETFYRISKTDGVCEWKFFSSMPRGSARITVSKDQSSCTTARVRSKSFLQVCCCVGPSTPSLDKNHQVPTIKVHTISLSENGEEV

Target: GLuc–ɑ1AAR (Homo sapiens, UniProt P35348)
Assay: α1AAR ligand screening, receptor–ligand BRET (GLuc–α1AAR)
Details: for inhibition at 10 µM: 20 min
[1] = read-out: receptor-ligand BRET decrease (%) Replicate1
[2] = read-out: receptor-ligand BRET decrease (%) Replicate2

For `CCCN1CCC(N2CCN(S(=O)(=O)c3ccc(C)cc3)CC2)CC1` [BCC0058402], the inhibition at 10 µM [1] was -6.67% and the inhibition at 10 µM [2] was -6.34%.
For `Cc1cc(C)c(CNC(=O)c2ccc(NC(=O)C3CC3)cc2)c(=O)[nH]1` [BCC0003661], the inhibition at 10 µM [1] was 1.24% and the inhibition at 10 µM [2] was 1.21%.
For `Cc1cc(C(=O)Nc2nc3ccc(F)cc3s2)no1` [BCC0024436], the inhibition at 10 µM [1] was 4.45% and the inhibition at 10 µM [2] was 0.97%.
`CCC(=O)c1ccc(OCCN2CCOCC2)cc1` [BCC0059938] showed an inhibition at 10 µM [1] of 8.85% and an inhibition at 10 µM [2] of 5.99%.
`Cc1cc(C(=O)NCc2ccc(F)cc2)on1` [BCC0004615] was tested, and the inhibition at 10 µM [1] was 0.7% and the inhibition at 10 µM [2] was -5.49%.
`CC(C)(C)Nc1nnc(Sc2ncnc3sccc23)s1` [BCC0117056] showed an inhibition at 10 µM [1] of 6.52% and an inhibition at 10 µM [2] of 6.57%.
`O=C(c1noc2c1COc1ccccc1-2)N1CCN(c2cccc(Cl)c2)CC1` [BCC0066678] gave an inhibition at 10 µM [1] of -6.37% and an inhibition at 10 µM [2] of -6.61%.
In the case of `COc1ccc(C(=O)NCCN2CCN(C(=O)c3ccc(OC)c(OC)c3)CC2)cc1OC` [BCC0048283], the inhibition at 10 µM [1] is reported as -5.39% and the inhibition at 10 µM [2] is reported as -5.11%.
For `CN1CCCCC1C#CC(O)(c1ccccc1)c1ccccc1` (centres unmarked) [BCC0068132], the “receptor-ligand BRET decrease (%) Replicate1” value was 1,11% and the “receptor-ligand BRET decrease (%) Replicate2” value was 3,15%.
With `O=C(CN1CCN(CC(=O)Nc2cccc([N+](=O)[O-])c2)CC1)Nc1cccc([N+](=O)[O-])c1` [BCC0036095] the inhibition at 10 µM [1] was -5.43% and the inhibition at 10 µM [2] was -9.52%.
`Cc1cc(S(=O)(=O)NCc2ccccc2)ccc1OCC(=O)N1CCN(C)CC1` [BCC0113627] showed an inhibition at 10 µM [1] of -2.26% and an inhibition at 10 µM [2] of 0.41%.
Compound `O=C(Cn1nnc2ccccc21)N1CCC(n2c(=O)oc3ccccc32)CC1` [BCC0101075] has an inhibition at 10 µM [1] of -11.5% and an inhibition at 10 µM [2] of -13.6%.
`CSc1ccc(CNC2CN3CCC2CC3)cc1` (centres unmarked) [BCC0080607] was tested, and the inhibition at 10 µM [1] was 8.06% and the inhibition at 10 µM [2] was 8.14%.
With `COc1ccccc1NS(=O)(=O)c1ccc2c(c1)SC(C)C(=O)N2` (centres unmarked) [BCC0083047] the inhibition at 10 µM [1] was -4.91% and the inhibition at 10 µM [2] was -5.6%.
`CC(NC(=O)C1CC1C)c1ccc(-n2cncn2)cc1` (centres unmarked) [BCC0008909] gave an inhibition at 10 µM [1] of -5.8% and an inhibition at 10 µM [2] of -1.11%.
With `CN(C)CCCNCc1ccc2c(c1)OCO2` [BCC0076253] the inhibition at 10 µM [1] was 0.86% and the inhibition at 10 µM [2] was 6.02%.
Work on `Cc1ccnc(SCc2nc3ccccn3c2Br)n1` [BCC0020406] yielded an inhibition at 10 µM [1] of -0.42% and an inhibition at 10 µM [2] of 1.09%.
`C=CCOc1ccc2[nH]c(C)c(C(=O)OCC)c2c1` [BCC0065386] was tested, and the inhibition at 10 µM [1] was -0.06% and the inhibition at 10 µM [2] was 2.3%.
Work on `O=C(CN1CCC(N2CCCCC2)CC1)N1CCC2(CC1)OCCO2` [BCC0092904] yielded an inhibition at 10 µM [1] of -1.8% and an inhibition at 10 µM [2] of 0.52%.
